Target: human OX2R (Homo sapiens, UniProt O43614)
Experiment: IPOne (IP-One) orexin receptor agonist assay in CHO cells expressing human OX2R

Amino acid sequences for entries named in this document (tags omitted).
UniProt O43614, whole entry: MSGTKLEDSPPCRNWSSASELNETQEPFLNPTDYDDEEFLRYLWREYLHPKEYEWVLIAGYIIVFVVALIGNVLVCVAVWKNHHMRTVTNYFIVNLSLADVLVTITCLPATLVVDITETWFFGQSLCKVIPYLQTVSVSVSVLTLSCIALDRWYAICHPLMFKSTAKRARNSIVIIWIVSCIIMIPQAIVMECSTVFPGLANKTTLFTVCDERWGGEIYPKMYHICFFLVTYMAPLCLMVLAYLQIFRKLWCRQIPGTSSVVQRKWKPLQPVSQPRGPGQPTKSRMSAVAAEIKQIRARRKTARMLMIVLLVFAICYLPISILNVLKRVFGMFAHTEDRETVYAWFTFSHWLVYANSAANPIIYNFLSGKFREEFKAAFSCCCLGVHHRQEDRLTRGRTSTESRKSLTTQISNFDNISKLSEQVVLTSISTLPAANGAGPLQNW

CS(=O)(=O)N[C@H]1CCN(c2cn[nH]c2)[C@H]1CO[C@H]1CC[C@@H](c2ccccc2)CC1
% Inhibition (human OX2R, percentage of sample raw value/mean max effect (reference compound at 1 uM with 100% activity)): 83.5% | EC50 (read-out: OX2R Potency, EC50, CHO cells expressing human OX2R, IP-One detection, 2 hours incubation, four parameter logistic fit): 3.95 µM

— US12312332B2 (Merck Sharp & Dohme LLC., priority 2019, dated 2025)
